One may read the CC50 as the concentration giving 50% cytotoxicity. Usually IC50 stands for the concentration at which inhibition is half-maximal. A lower IC50 goes with inhibition by little substance.

The text below walks through data of ChEMBL document CHEMBL5154836, “4,5-Dihydroxypyrimidine Methyl Carboxylates, Carboxylic Acids, and Carboxamides as Inhibitors of Human Cytomegalovirus pUL89 Endonuclease” (J Med Chem, 2022).

Data set [1] has as its system HFF. The data set can be described thus: Cytotoxicity against HFF cells assessed as cell viability incubated for 168 hrs by MTS-based Cell Titer assay. Format: toxicity. To be noted: human.
Data set [2] concerns the target T1, Tripartite terminase subunit 3 (Human betaherpesvirus 5, UniProt P16732).
T1 sequence (P16732 whole entry): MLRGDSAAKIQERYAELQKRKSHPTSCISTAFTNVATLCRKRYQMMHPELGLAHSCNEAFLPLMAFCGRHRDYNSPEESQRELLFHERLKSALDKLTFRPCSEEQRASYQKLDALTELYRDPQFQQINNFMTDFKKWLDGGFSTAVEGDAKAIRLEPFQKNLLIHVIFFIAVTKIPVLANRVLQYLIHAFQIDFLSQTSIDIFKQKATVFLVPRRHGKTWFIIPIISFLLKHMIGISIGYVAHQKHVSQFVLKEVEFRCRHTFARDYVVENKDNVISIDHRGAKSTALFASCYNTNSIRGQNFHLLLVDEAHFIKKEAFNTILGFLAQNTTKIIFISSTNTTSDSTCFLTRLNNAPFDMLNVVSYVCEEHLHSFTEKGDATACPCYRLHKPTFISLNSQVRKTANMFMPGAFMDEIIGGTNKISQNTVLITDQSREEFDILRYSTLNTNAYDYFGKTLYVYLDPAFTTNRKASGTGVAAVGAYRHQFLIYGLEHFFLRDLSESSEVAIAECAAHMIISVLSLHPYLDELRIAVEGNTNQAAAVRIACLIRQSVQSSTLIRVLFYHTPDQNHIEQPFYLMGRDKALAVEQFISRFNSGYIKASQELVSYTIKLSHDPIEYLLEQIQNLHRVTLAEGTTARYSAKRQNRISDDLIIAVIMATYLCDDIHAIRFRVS

Data set [3] deals with T1, Tripartite terminase subunit 3. The source holds these as a separate data set.

Take `COC(=O)c1nc(Cc2ccc(Cl)c(Cl)c2)[nH]c(=O)c1O`: the CC50 in data set [1] was greater than 100 µM.

Regarding `O=C(O)c1cn(Cc2ccc(Cl)c(F)c2)cc(O)c1=O`, the IC50 in data set [2] and in data set [3] was 4.2 µM in each case.

In the case of `COC(=O)c1nc(-c2cccs2)nc(O)c1O`, the CC50 in data set [1] was greater than 100 µM.

For `O=C(O)c1nc(Cc2ccc(Cl)c(Cl)c2)nc(O)c1O`, the CC50 in data set [1] was greater than 100 µM.

As for `COC(=O)c1nc(-c2ccc(-c3ccccc3)cc2)[nH]c(=O)c1O`, the CC50 in data set [1] was greater than 100 µM.

With `O=C(NCc1ccc(C(F)(F)F)cc1)c1nc(-c2cccs2)[nH]c(=O)c1O`, the CC50 in data set [1] worked out at 43 µM.
